Laboratory results: patent publication US4701459A, “7-amino-1,3-dihydro-2H-imidazo[4,5-b]quinolin 2-ones and method for inhibiting phosphodiesterase and blood platelet aggregation” (Bristol-Myers Company, priority 1986, dated 1987)

Tested on: platelet rich plasma (induced aggregation)
Experiment: Inhibition of Platelet Aggregation Following Oral Administration (Ex vivo method)
Format: in vivo
Details: Rattus norvegicus, rats, oral (gavage), 2 hours after dosing, vs. ADP
Description: Inhibition of Platelet Aggregation Following Oral Administration
This test is sometimes referred to in the art as an Ex vivo method and was initially described by Fleming, et al., Arch. Int. Pharmacodyn. Ther., 199, 164 (1972). Briefly, the assay is essentially carried out as follows.
Aggregometry is performed in vitro as previously described on platelet rich plasma samples obtained from rats dosed with either test compounds or the vehicle. In all cases, activity is determined 2 hours after the drug is administered orally at various doses by gavage as a suspension in […] plus a few drops of Tween 20.

O=c1[nH]c2cc3cc(N4CCOCC4)ccc3nc2[nH]1 [Example 10, 1,3-Dihydro-7-(4-morpholinyl)-2H-imidazo[4,5-b]quinolin-2-one]
ED50: 12.2 mg/kg
